According to US20170240629A1 (Hoffmann-La Roche, published 2017):
Where two headings read alike, the source gives them in different places.

Protein sequences, listed by entry. Tags and fused reporters are not part of them. Residues count along the entry.
UniProt P79182, 117-268 limits assumed: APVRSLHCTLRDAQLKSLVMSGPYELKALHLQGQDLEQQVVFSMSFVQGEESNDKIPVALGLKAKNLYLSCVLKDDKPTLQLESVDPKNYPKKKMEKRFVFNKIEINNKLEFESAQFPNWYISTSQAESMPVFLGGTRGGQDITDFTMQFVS
UniProt P10749, 118-269 limits assumed: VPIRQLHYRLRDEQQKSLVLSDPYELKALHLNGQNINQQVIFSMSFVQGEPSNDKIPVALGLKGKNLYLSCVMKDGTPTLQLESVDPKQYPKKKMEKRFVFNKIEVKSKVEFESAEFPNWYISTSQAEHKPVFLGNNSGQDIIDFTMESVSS
UniProt Q63264, 117-268 limits assumed: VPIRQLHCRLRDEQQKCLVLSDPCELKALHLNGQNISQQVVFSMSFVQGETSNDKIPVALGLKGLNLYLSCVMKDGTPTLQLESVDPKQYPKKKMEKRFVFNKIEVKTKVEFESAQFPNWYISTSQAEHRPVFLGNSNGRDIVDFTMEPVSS

Columns and labels:
[1] = target: T1, human IL-1beta (human, UniProt P01584 117-269); assay: cell-based or functional assay
[2] = target: T1, human IL-1beta; assay: cell-based or functional assay; remark: listed apart in the source
[3] = target: cynomolgus IL-1beta (cynomolgus, UniProt P79182 117-268); assay: SPR (BIAcore); antibody captured by anti-Fc, IL-1beta injected
[4] = target: T1, human IL-1beta; assay: cell-based or functional assay; remark: listed apart in the source
[5] = target: T1, human IL-1beta; assay: cell-based or functional assay; remark: listed apart in the source
[6] = target: murine IL-1beta (murine, UniProt P10749 118-269); assay: SPR (BIAcore); antibody captured by anti-Fc, IL-1beta injected
[7] = target: T1, human IL-1beta; assay: cell-based or functional assay; remark: listed apart in the source
[8] = target: rat IL-1beta (rat, UniProt Q63264 117-268); assay: SPR (BIAcore); antibody captured by anti-Fc, IL-1beta injected

B1: Gevokizumab (antibody, V domains shown)
VH: QVQLQESGPGLVKPSQTLSLTCSFSGFSLSTSGMGVGWIRQPSGKGLEWLAHIWWDGDESYNPSLKSRLTISKDTSKNQVSLKITSVTAADTAVYFCARNRYDPPWFVDWGQGTLVTVSS
VL: DIQMTQSTSSLSASVGDRVTITCRASQDISNYLSWYQQKPGKAVKLLIYYTSKLHSGVPSRFSGSGSGTDYTLTISSLQQEDFATYFCLQGKMLPWTFGQGTKLEIK
- IC50, inhibition of proliferation of D10 cells [1]: 3.36 nM
- IC50, inhibition of ICAM-1 expression upon IL-1beta stimulation of A549 cells [2]: 0.94 nM
- Kd [3]: 0.02 nM
- IC50, inhibition of ICAM-1 expression upon IL-1beta stimulation of A549 cells [4]: 0.204 µg/mL
- EC50, reduction of IL-6 expression upon IL-1beta stimulation of A549 cells [5]: 0.062 µg/mL
- Kd [6]: 0.22 nM
- EC50, reduction of IL-6 expression upon IL-1beta stimulation of A549 cells [7]: 0.11 nM
- Kd [8]: 0.007 nM
